Assay results from article PMC10453637, “In Vivo, High-Throughput Selection of Thermostable Cyclohexanone Monooxygenase (CHMO)” (Catalysts (Basel, Switzerland), 2020).

System: O=C1CCCCC1
Experiment: purified protein
Conditions: apparent, 0.3 mM NADPH, 50 mM sodium phosphate pH 7.7, 25 °C

Work on “Ac CHMO (cyclohexanone monooxygenase) (Acinetobacter johnsonii; A245G/A288V)” yielded a Km of 5.64 ± 0.48 µM.
